These are literature values, as cited in patent publication US6538019B1, “Functional emulsions” (Japan as represented by Director of National Food Research …, priority 2000, dated 2003).

For this series the following is noted: cited from earlier work.

Consider catechin, for which the “Solubility with respect to water” value is reported as “slightly soluble in water”.
